Drawing on ChEMBL document CHEMBL1137617, “Potent, orally bioavailable calcitonin gene-related peptide receptor antagonists for the treatment of migraine: discovery of N-[(3R,6S)-6-(2,3-difluorophenyl)-2-oxo-1- (2,2,2-trifluoroethyl)azepan-3-yl]-4- (2-oxo-2,3-dihydro-1H-imidazo[4,5-b]pyridin- 1-yl)piperidine-1-carboxamide (MK-0974)” (J Med Chem, 2007), this text covers bioavailability and Ratio IC50 for seven compounds.

The chains behind the UniProt entries cited, without tags or fusion partners. Where a name states a change or a piece, a line headed by the entry shows the natural chain unless it says otherwise.
UniProt Q16602: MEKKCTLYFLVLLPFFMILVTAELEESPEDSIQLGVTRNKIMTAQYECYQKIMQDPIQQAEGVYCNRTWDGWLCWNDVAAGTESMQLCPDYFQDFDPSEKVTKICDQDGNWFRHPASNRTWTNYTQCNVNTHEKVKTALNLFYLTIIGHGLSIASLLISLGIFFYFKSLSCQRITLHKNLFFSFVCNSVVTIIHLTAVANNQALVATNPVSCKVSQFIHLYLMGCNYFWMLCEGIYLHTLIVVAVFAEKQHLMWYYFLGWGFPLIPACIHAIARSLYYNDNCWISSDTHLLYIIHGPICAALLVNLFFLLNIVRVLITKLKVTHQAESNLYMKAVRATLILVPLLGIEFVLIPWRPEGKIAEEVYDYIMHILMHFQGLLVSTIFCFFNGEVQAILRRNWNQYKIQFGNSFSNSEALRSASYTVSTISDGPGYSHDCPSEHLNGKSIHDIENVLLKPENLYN

The subject of series [1] is Canis lupus familiaris. In words: Oral bioavailability in dog at 1 mg/kg. As to conditions: in vivo.
Series [2] has as its target Calcitonin gene-related peptide type 1 receptor (Homo sapiens, UniProt Q16602). The series can be described thus: Ratio of IC50 for human CL receptor in E10 cells in presence of 50% human serum over IC50 for human CL receptor in E10 cells.
The nature of series [3]: Oral bioavailability in rat at 10 mg/kg. It is filed as ADME, organism-based. To be noted: in vivo. The procedure, abridged: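 In rats, the oral dose of 10 mg/kg was given as a suspension in 1% aqueous methylcellulose.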

Consider `O=C1NC[C@H](c2cccc(F)c2F)CC[C@H]1NC(=O)N1CCC(n2c(=O)[nH]c3ncccc32)CC1`, for which the bioavailability in series [1] was determined as 30%. For the same compound, in series [2], the Ratio IC50 is 1.6.
In series [1], `O=C(N[C@@H]1CC[C@@H](c2cccc(F)c2F)CN(CC(F)F)C1=O)N1CCC(n2c(=O)[nH]c3ncccc32)CC1` registered a bioavailability of 11%. Also, in series [2], the Ratio IC50 worked out at 3.
In the same order, the values of `O=C(N[C@@H]1CC[C@@H](c2cccc(F)c2F)CN(CCOC(F)(F)F)C1=O)N1CCC(n2c(=O)[nH]c3ncccc32)CC1` are 7% and 6.
The corresponding values for `O=C(N[C@@H]1CC[C@@H](c2cccc(F)c2F)CN(CC2CC2)C1=O)N1CCC(n2c(=O)[nH]c3ncccc32)CC1` are 17% and 11.
`CN1C[C@H](c2cccc(F)c2F)CC[C@@H](NC(=O)N2CCC(n3c(=O)[nH]c4ncccc43)CC2)C1=O` displayed a bioavailability in series [1] of 60%. Also, the Ratio IC50 in series [2] came out at 2.8.
Regarding `O=C(N[C@@H]1CC[C@@H](c2cccc(F)c2F)CN(Cc2ccccn2)C1=O)N1CCC(n2c(=O)[nH]c3ncccc32)CC1`, the bioavailability in series [3] and in series [1] was 12% each time. Besides, the Ratio IC50 in series [2] was 5.
In turn, `O=C(N[C@@H]1CC[C@@H](c2cccc(F)c2F)CN(CCN2CCOCC2)C1=O)N1CCC(n2c(=O)[nH]c3ncccc32)CC1` had a bioavailability in series [1] of 1%. In series [2], the Ratio IC50 was determined as 1.

The bioavailability is the share of a dose that reaches the circulation, judged against a reference dose that is usually intravenous. A low value points to little systemic uptake.
